Measurements: PMC2074348, “Preclinical in vivo efficacy of two 9-dihydrotaxane analogues against human and murine tumours” (British Journal of Cancer, 1996)

Tests used:
[1] = tested on: A549, HT-29, B16F10 and P388 tumour cells; experiment: In vitro cytotoxicity across the four tumour cell lines, compared with paclitaxel; assay type: cell-based, human and murine; conditions: IC50 across the four tumour cell lines
[2] = tested on: BDF mice bearing B16F10 ascites tumours; conditions: for Tolerated daily dosage relative to paclitaxel: daily i.p. doses; for Toxicity compared with paclitaxel: mouse, in vivo
[3] = Water solubility
[4] = tested on: A549; experiment: In vitro tumour cell cytotoxicity, colorimetric MTT assay, 72 h; assay type: cell-based, human; conditions: A549 cells, IC50 compared with paclitaxel
[5] = tested on: B16F10; experiment: as above; assay type: cell-based, murine; conditions: B16F10 cells, IC50 compared with paclitaxel

| Compound | Fold less potent than paclitaxel [1] [fold] | Fold less potent than paclitaxel ([1]; listed as 9-DH-t) | Tolerated daily dosage relative to paclitaxel [2] [fold] | Toxicity compared with paclitaxel [2] | Water solubility relative to paclitaxel [3] | Fold less potent than paclitaxel [4] [fold] | Fold less potent than paclitaxel [5] [fold] |
| --- | --- | --- | --- | --- | --- | --- | --- |
| CC(=O)O[C@@H]1C2=C(C)[C@@H](OC(=O)[C@H](O)[C@@H](NC(=O)c3ccccc3)c3ccccc3)C[C@@](O)([C@@H](OC(=O)c3ccccc3)[C@@H]3[C@]4(OC(C)=O)CO[C@@H]4C[C@H](O)[C@@]3(C)[C@H]1O)C2(C)C [Compound A-85576, 9-dihydrotaxol] | ≤ 8 | 3- to 5 fold | 4 | less toxic than paclitaxel | approximately 75 fold | – | – |
| CC(=O)OC12COC1CC(O)C1(C)C(O)C(O)C3=C(C)C(OC(=O)C(O)C(NC(=O)c4ccccc4)c4ccccc4)CC(O)(C(OC(=O)c4ccccc4)C21)C3(C)C (centres unmarked) [Compound A-86415, 10-deacetyl-9-dihydrotaxol] | ≤ 8 | – | 4 | less toxic than paclitaxel | approximately 20 fold | 3 | 8 |
